Molecular target: T1, Histone-lysine N-methyltransferase EHMT1 (Homo sapiens, UniProt Q9H9B1)
T1 sequence (Q9H9B1 whole entry): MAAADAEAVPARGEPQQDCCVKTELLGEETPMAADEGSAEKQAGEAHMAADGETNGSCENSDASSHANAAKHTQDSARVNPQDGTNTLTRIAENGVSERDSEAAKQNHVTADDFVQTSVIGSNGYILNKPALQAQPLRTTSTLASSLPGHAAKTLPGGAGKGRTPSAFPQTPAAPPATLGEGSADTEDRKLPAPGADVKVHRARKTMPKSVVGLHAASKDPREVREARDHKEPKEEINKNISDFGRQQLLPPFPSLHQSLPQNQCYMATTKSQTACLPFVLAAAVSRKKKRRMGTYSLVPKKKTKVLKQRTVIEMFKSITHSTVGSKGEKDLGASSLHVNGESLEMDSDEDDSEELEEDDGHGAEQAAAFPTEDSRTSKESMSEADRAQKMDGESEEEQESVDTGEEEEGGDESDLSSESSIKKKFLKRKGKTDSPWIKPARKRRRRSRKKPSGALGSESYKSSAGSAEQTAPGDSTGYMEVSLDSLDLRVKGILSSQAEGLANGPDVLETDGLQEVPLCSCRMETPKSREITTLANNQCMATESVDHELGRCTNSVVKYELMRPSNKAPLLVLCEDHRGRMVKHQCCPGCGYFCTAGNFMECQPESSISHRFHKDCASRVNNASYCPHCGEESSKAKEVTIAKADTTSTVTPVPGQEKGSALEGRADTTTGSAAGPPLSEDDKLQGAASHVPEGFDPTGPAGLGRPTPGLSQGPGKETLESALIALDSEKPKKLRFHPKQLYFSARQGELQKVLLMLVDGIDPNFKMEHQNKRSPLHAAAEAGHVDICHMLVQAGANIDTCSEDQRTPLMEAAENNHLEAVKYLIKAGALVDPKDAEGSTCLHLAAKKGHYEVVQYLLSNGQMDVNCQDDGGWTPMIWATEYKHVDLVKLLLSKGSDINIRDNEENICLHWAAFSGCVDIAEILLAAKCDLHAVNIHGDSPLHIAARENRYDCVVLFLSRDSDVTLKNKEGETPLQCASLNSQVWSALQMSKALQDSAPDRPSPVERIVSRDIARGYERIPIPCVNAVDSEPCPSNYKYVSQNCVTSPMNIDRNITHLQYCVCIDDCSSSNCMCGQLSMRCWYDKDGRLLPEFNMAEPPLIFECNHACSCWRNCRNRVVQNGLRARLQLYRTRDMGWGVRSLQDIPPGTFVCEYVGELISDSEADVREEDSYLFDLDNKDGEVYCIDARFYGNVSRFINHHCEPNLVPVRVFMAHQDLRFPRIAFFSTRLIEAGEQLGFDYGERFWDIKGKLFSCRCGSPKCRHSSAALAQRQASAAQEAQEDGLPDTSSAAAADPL
Assay: Inhibition of GLP (unknown origin)

- IC50: 20 nM
Structure (SMILES): COc1cc2nc(N3CCCN(C)CC3)nc(NC3CCN(Cc4ccccc4)CC3)c2cc1OC

Source: ChEMBL document CHEMBL6087477, “G9a/GLP Modulators: Inhibitors to Degraders” (J Med Chem, 2025)
